Measurements taken from PubChem BioAssay AID493131 (Broad Institute, 2011).
Only a part is listed here, and it is no random draw. Calls of active or inactive are those of the source.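 The calls were made as follows: active = mean activation above about 17%, with every replicate also reaching it (limit read from the data, passing the limit was not always enough); inconclusive = only one of the two conditions met; inactive = the rest.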

The chains behind the UniProt entries cited, without tags or fusion partners.
UniProt P13346, whole entry: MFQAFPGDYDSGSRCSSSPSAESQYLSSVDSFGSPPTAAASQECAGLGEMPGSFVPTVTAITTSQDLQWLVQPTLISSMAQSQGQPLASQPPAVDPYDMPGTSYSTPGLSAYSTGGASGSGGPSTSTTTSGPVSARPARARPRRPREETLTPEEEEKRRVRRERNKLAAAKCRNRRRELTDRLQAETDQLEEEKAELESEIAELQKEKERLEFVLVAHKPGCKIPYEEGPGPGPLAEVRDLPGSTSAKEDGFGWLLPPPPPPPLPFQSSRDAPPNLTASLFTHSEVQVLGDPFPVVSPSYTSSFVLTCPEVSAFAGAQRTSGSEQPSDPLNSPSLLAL

Molecular target: Protein FosB (Mus musculus) (UniProt P13346)
Experiment: enhancers of mouse delta FosB DNA binding – biochemical, fluorescence polarization, TAMRA-CDK5 oligo, single point, primary screen (AID 493131);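 also: fluorescence polarization rise as delta FosB binds a TAMRA Cdk5 AP-1 oligo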
Conditions: purified delta FosB, at 25 µM, active compounds read high, percent of positive-control signal above neutral wells

Structure (SMILES)	activation
CCC(=O)N(c1ccccc1)C1(COC)CCN(CCc2cccs2)CC1	inactive: -2.16%
CCC(=O)N(c1ccccc1)C1(COC)CCN(CCn2nnn(CC)c2=O)CC1	inactive: -2.13%
